# Results from ChEMBL document CHEMBL6114983 (Bioorg Med Chem, 2025).
# Amino acid sequences for entries named in this document (tags omitted). Residues count along the entry.
# UniProt Q16769, 29-361 limits assumed: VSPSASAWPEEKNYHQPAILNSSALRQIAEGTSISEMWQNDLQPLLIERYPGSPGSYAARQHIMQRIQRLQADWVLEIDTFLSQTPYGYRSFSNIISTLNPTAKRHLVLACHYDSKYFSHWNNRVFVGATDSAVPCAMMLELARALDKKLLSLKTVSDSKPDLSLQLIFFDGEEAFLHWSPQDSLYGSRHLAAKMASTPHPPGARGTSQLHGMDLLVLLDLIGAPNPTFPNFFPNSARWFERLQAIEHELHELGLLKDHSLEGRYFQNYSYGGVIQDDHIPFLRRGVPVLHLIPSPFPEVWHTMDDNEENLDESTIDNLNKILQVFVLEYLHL
# Some compounds may have been tested in ways that are not shown here.
# Biological target: Glutaminyl-peptide cyclotransferase (Homo sapiens, UniProt Q16769)
structure (smiles),measurement,value
COc1ccc(N(C(=O)NCCCn2cncc2C)C2CCN(C(=O)OC(C)(C)C)CC2)cc1OC,IC50,15.3 nM
